Experimental data from paper PMC3402509 (Investigational New Drugs, 2011).

Conditions: not considered dose-limiting

cetuximab: a monoclonal antibody recognizing the EGFR ligand-binding domain
grade 3 infusion reaction to cetuximab, patients: another patient
